Legend:
[1] = molecular target: T1, HNE under oxidizing conditions (oxidized HNE) (Homo sapiens, UniProt P08246); assay: HNE inhibition assay under oxidizing conditions (HNE pre-incubated with 44 mM H2O2); type: biochemical; details: HNE pre-incubated with 44 mM H2O2, 60 min, 37 °C; substrate 0.15 mM
T1 construct: purchased Abcam
T1 sequence (P08246 30-247 limits assumed): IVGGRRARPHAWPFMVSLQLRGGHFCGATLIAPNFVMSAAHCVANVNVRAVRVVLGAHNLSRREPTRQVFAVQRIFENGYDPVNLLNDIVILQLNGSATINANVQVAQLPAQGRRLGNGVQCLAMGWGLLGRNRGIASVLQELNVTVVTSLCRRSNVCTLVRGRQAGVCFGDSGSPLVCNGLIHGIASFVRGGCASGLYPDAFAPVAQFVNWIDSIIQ
Experimental: HNE activity under oxidative conditions was determined using the colorimetric assay described above. Briefly, HNE was pre-incubated with 1 μL of 30% (w/v) H2O2 (final concentration 44 mM in a total reaction volume of 200 μL) for 60 min at 37 °C. The oxidative conditions used in this study were designed to promote cumulative oxidative modifications of HNE rather than to reproduce physiological ROS concentrations, allowing simulation of oxidative stress in chronically inflamed tissues where repeated ROS exposure leads to progressive protein oxidation. The kinetic parameters of oxidized HNE were determined as described above. Subsequently, inhibition assays were performed by initiating the reaction with substrate (final concentration 0.15 mM) in the presence of increasing concentrations of inhibitor (0.1–100 μM). The reaction mixtures were then incubated at 37 °C for 45 min and then terminated by the addition of 20 μL of 0.45 M TCA. Samples were cooled on ice, centrifuged, and analyzed as described in Section 2.4.
Residual enzymatic activity (%) was calculated relative to HNE activity in the absence of inhibitors, set as 100%. The lowest observed activity under the experimental conditions was taken as the maximal inhibition achieved within this assay range.

[2] = molecular target: T2, Human neutrophil elastase (HNE) (Homo sapiens, UniProt P08246); assay: HNE colorimetric inhibition and steady-state kinetics assay (MeOSuc-Ala-Ala-Pro-Val-pNA), native conditions; type: biochemical; details: substrate 0.15 mM, inhibitor 0.1-100 μM, 37 °C, 45 min, read-out: IC50 against HNE activity
T2 construct: purchased Abcam
T2 sequence (P08246 30-267): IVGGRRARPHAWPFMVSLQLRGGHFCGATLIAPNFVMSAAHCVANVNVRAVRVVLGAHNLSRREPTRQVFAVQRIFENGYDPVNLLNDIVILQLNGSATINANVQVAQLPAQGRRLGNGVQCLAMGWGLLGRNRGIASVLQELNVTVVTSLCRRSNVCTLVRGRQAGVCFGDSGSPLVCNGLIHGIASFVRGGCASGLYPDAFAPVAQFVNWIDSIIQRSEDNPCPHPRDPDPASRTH
Experimental: HNE activity was assessed through a colorimetric assay based on the hydrolysis of the synthetic peptide substrate MeOSuc-Ala-Ala-Pro-Val-pNA [37]. To determine the steady-state kinetic parameters, 0.4 μg of HNE (corresponding to a final concentration of approximately 0.05 μM) were added to an incubation buffer consisting of 50 mM Tris-HCl, pH 7.8 containing 500 mM NaCl. The reaction was initiated by adding a fixed volume (20 µL) of intermediate substrate working solutions to the enzyme–buffer mixture, reaching a final reaction volume of 200 µL. These working solutions were prepared by diluting a 20 mM substrate stock solution in DMSO with incubation buffer, ensuring that the final DMSO concentration remained constant at 1% (v/v) across all tested substrate concentrations (ranging from 0.075 to 2.4 mM). […] The concentration of p-nitroaniline (p-NA) released into the supernatant was determined by measuring the absorbance at 410 nm. All assays were performed in triplicate, and the kinetic parameters were determined by fitting the experimental data to the Michaelis–Menten equation using GraphPad Prism 8.0 software (GraphPad Software, San Diego, CA, USA). […]
Subsequently, the inhibition constants (Ki) were determined independently from IC50 values by performing steady-state kinetic assays at varying concentrations of both substrate and inhibitors. […]

In the case of CC(C)(C)C(=O)Oc1ccc(S(=O)(=O)Nc2ccccc2C(=O)NCC(=O)O)cc1 [Sivelestat], the IC50 [1] is reported as greater than 100000 nM and the IC50 [2] is reported as 850 ± 80 nM.

From paper PMC13165411, “The Differential Redox Resilience of Alvelestat and Sivelestat: A Mechanistic Hypothesis for Inhibitor Performance Under Oxidative Stress” (Molecules, 2026)
